This note sets out measurements from ChEMBL document CHEMBL4145697, “Replacement of a Naphthalene Scaffold in Kelch-like ECH-Associated Protein 1 (KEAP1)/Nuclear Factor (Erythroid-derived 2)-like 2 (NRF2) Inhibitors” (J Med Chem, 2018).

By UniProt entry, the sequences of proteins in these tests, tags left out.
UniProt Q16236, whole entry, looked up: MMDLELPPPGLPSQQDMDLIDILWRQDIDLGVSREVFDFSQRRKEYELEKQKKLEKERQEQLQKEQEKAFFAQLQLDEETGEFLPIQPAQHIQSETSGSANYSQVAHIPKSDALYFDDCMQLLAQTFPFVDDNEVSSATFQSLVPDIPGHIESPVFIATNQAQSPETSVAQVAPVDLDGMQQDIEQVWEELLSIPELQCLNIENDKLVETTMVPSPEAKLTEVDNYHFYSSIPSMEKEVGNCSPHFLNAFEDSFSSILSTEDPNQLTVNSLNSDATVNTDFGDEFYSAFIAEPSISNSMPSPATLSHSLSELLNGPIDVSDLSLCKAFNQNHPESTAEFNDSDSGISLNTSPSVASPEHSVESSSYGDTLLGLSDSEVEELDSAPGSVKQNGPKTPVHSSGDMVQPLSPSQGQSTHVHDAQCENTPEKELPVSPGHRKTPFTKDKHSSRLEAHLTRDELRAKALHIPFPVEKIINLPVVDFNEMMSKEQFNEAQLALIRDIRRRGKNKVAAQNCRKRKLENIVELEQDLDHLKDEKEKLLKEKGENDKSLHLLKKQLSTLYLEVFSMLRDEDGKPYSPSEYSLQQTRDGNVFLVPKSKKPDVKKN
UniProt Q14145, whole entry, looked up: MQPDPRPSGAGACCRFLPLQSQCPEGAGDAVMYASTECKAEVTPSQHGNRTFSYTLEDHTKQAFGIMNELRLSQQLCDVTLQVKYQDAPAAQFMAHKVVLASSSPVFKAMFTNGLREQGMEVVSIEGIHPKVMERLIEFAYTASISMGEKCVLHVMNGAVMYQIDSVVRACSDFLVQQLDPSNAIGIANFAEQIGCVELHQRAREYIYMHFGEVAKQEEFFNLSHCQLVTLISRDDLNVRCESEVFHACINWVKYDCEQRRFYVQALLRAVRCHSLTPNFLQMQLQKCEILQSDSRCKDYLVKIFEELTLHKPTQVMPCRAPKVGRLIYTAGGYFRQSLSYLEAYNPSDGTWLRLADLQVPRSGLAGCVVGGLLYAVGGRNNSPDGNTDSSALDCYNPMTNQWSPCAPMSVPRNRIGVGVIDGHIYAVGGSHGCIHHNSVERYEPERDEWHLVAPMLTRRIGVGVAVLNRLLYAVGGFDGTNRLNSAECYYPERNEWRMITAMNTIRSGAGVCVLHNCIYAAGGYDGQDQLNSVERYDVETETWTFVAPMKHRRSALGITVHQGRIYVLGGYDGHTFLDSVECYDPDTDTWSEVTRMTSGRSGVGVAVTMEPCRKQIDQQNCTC

What all share (assay type): cell-based
Experiment [1] deals with T1, Keap1/Nrf2 (Homo sapiens) (UniProt Q16236+Q14145). As to the kind of experiment: Inhibition of Keap1/Nrf2 interaction in human HaCaT cells assessed as increase in GCLM gene expression at 10 uM incubated for 6 hrs by qPCR method.
The target of experiment [2] is T1, Keap1/Nrf2 (Homo sapiens). Put plainly: Inhibition of Keap1/Nrf2 interaction in human HaCaT cells assessed as increase in GCLC gene expression at 10 uM incubated for 6 hrs by qPCR method.
Experiment [3] addresses T1, Keap1/Nrf2 (Homo sapiens). Put plainly: Inhibition of Keap1/Nrf2 interaction in human HaCaT cells assessed as increase in NRF2 nuclear accumulation at 10 uM incubated for 6 hrs by immunoblot assay.
For experiment [4], the target named is T1, Keap1/Nrf2 (Homo sapiens). As to the kind of experiment: Inhibition of Keap1/Nrf2 interaction in human HaCaT cells assessed as increase in NRF2 nuclear accumulation at 10 uM incubated for 24 hrs by immunoblot assay.
The target of experiment [5] is T1, Keap1/Nrf2 (Homo sapiens). As to the kind of experiment: Inhibition of Keap1/Nrf2 interaction in human HaCaT cells assessed as increase in NQO1 protein expression at 10 uM incubated for 24 hrs by Western blot method. In a few lines: (§1)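 HaCaT cells in DMEM, 10% FBS, 1% antibiotics, treated at 70–80% confluence with 10 μM compound or DMSO for 6 or 24 h in complete medium. Lysates (~40 μg protein) resolved by 10% SDS-PAGE, immunoblotted for NQO1; bands quantified against GAPDH, vehicle set to one arbitrary unit.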

The target in experiment [6] is T1, Keap1/Nrf2 (Homo sapiens). As to the kind of experiment: Inhibition of Keap1/Nrf2 interaction in human HaCaT cells assessed as increase in NQO1 protein expression at 10 uM incubated for 6 hrs by Western blot method. The method, boiled down: as §1
For experiment [7], the target named is T1, Keap1/Nrf2 (Homo sapiens). As to the kind of experiment: Inhibition of Keap1/Nrf2 interaction in human HaCaT cells assessed as increase in HMOX1 gene expression at 10 uM incubated for 6 hrs by qPCR method.
Experiment [8] addresses T1, Keap1/Nrf2 (Homo sapiens). Put plainly: Inhibition of Keap1/Nrf2 interaction in human HaCaT cells assessed as increase in NQO1 gene expression at 10 uM incubated for 24 hrs by qPCR method.

The source made the active and inactive calls. The rule behind the calls is not given here.

Take `COc1ccc(S(=O)(=O)N(CC(=O)O)c2cnc(N(CC(=O)O)S(=O)(=O)c3ccc(OC)cc3)c3ccccc23)cc1`: the inhibition entry in experiment [1], in experiment [2], in experiment [5], in experiment [6], in experiment [7] and in experiment [8] was “Active” in each case. The fold change (FC) in experiment [3] and in experiment [4] was 2 each time.
